Each structure is given as a SMILES string.

The chains behind the UniProt entries cited, without tags or fusion partners.
UniProt P0DMS8, whole entry: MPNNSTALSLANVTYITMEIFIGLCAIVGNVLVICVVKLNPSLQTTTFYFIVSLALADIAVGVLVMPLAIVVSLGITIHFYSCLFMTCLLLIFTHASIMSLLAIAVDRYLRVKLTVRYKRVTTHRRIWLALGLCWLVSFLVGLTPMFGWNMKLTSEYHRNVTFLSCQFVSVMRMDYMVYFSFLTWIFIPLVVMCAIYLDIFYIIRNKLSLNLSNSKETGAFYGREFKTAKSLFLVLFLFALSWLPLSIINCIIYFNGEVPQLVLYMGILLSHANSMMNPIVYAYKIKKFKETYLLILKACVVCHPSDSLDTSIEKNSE

Experiment [1] addresses human A2a receptor subtype (Homo sapiens, UniProt P29274). Put plainly: Adenosine 2a receptor subtype competition radioligand binding, [3H]CGS-21680, HEK293 membranes. Particulars: @ 10 μM; tested form: ammonium salt (drawn as NH3 with a charg).
Experiment [2] concerns the target human A3 receptor subtype (Homo sapiens, UniProt P0DMS8). Briefly: Adenosine 3 receptor competition radioligand binding, [125I]AB-MECA, HEK293 membranes. Particulars: @ 10 μM.

`Cc1[nH]c2nc(-c3ccccc3)nc(NCCNC(=O)C3(N)CC3)c2c1C`: the “% activity A2a” value in experiment [1] is listed as 65%.

On to `O[C@H]1CC[C@H](Nc2nc(-c3ccncc3)nc3[nH]ccc23)CC1`, for which the “% activity A3” value in experiment [2] is recorded as 54%^8.

(Values after US7504407B2, “Compounds specific to adenosine A1 and A3 receptors and uses thereof” (OSI Pharmaceuticals, Inc., priority 2001, dated 2009).)
